# Measurements reported in ChEMBL document CHEMBL1255295, “Convergent in vivo and in vitro selection of ceftazidime resistance mutations at position 167 of CTX-M-3 beta-lactamase in hypermutable Escherichia coli strains” (2008).
# Test system: Escherichia coli
# Assay: Antimicrobial activity against Escherichia coli EPI300 transformant harboring pCC1 by agar dilution method
# Type: functional
smiles,measurement,value
CO/N=C(\C(=O)N[C@@H]1C(=O)N2C(C(=O)O)=C(COC(C)=O)CS[C@H]12)c1csc(N)n1 [CEFOTAXIME],MIC,0.06 µg/mL
